From US20100286145A1, “ISOPHTHALAMIDE DERIVATIVES INHIBITING BETA-SECRETASE ACTIVITY” (CoMentis, Inc., priority 2007, published 2010)

Protein sequences, listed by entry. Tags and fused reporters are not part of them. Residues count along the entry.
UniProt P56817, 46-501 limits assumed: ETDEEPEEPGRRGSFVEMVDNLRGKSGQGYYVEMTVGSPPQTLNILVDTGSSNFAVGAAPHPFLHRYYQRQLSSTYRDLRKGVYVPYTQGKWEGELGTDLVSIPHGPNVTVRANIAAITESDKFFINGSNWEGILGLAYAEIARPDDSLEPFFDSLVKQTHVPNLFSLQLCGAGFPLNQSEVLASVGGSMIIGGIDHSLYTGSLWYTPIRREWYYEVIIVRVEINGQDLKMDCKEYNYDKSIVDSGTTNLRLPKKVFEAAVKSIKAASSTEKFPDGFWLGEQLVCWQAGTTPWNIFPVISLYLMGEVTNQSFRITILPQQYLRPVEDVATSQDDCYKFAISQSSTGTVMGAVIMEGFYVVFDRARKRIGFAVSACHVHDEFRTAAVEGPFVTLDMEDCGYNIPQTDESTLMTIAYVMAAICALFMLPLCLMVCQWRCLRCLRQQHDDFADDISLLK

Tests used:
[1] = test system: Aβ production in Chinese hamster ovary cells that over-express human APP695 with the London and Swedish mutations; assay: Cellular Aβ IC50 determination (Aβ40 sandwich ELISA)
[2] = target: memapsin 2 (Homo sapiens, UniProt P56817); assay: Inhibition of memapsin 2 beta-secretase activity (fluorogenic substrate FS-2); settings: read-out: M2Ki; memapsin 2, pH 4, 37° C., 20 minutes pre-incubation
Protocol: Potency of compounds were determined by measurement of their inhibition of memapsin 2 activity toward a fluorescent substrate. Kinetic inhibition experiments were performed using the procedure as described in Ermolieff, et al. (Biochemistry 39:12450-12456 (2000), the teachings of which are incorporated hereby in their entirety). Briefly, assays were performed at pH 4, 37° C., by pre-incubation of memapsin 2 enzyme with compound for 20 minutes. Activity measurements were initiated by addition of a fluorogenic substrate FS-2 (Bachem Americas, Torrance, Calif.) MCA-SEVNLDAEFR-DNP (SEQ ID NO.: 2). The substrate was derived from 10 amino acids of the human amyloid precursor protein (APP), with the Swedish variant amino acids at the beta-secretase cleavage site. The terminal amino acid was modified from arginine to lysine to facilitate derivatization with a functional group for detection by autofluorescence. The amino acid sequence of the “core” peptide of the substrate is SEVNLDAEFK (SEQ ID NO.: 3). The amino terminus was derivatized with (7-methoxycoumarin-4-yl)acetyl (MCA), and the epsilon amine of the lysine side chain of the terminal residue (K in sequence SEVNLDAEFK (SEQ ID NO.: 3)) was derivatized with 2,4-dinitorphenyl (DNP).
Fluorescent signal increase over time was measured as a rate of hydrolysis of the peptide substrate. […]

## COc1cccc(CN(C)C[C@@H](O)[C@H](Cc2ccccc2)NC(=O)c2cccc(C(=O)N(C)Cc3nc(C)cs3)c2)c1 [Compound 1, N^1-((2S,3R)-3-hydroxy-4-((3-methoxybenzyl)(methyl)amino)-1-phenylbutan-2-yl)-N^3-methyl-N^3-((4-methylthiazol-2-yl)methyl)isophthalamide]
[1]
  IC50: 1 to 5 µM
[2]
  Ki: > 0.501 µM
